Usually solubility stands for the concentration that dissolves in the medium under given conditions.

Results on one compound are retold here after patent US9738657B2, “Highly efficient polarizing agents for dynamic nuclear polarization” (Bruker Biospin S.A.S., priority 2013, dated 2017).

This data set can be described thus: Solubility in Glycerol/H2O (60/40). The note with it: glycerol/water (60/40), aqueous with cosolvent or surfactant or cyclodextrin.

Turning to `[O]N1C2(CCOCC2)CC(N2CC(O)CN(C3CC4(CCOCC4)N([O])C4(CCOCC4)C3)C2=O)CC12CCOCC2` (stereo not shown) [Compound 69, 5-Hydroxy-1,3-bis(7-oxyl-3,11-dioxa-7-azadispiro[5.1.5.3]-hexadec-15-yl)tetrahydropyrimidin-2(1H)-one], the solubility was greater than 10 mM.
